Measured values as given in US11052082B2 (priority 2012, dated 2021).
Structures can show the parent of a compound that is named as a salt.

Key:
BCP-ALL-cell line Tanoue = type: cell-based, human; conditions: 96 h; 3 μg/mL D,L-methadone + 0.06 μg/mL doxorubicin; 60 μg/mL naloxone, 200 μM IBMX or PTX
[1] = tested on: xenograft-derived ALL-cells (ALL-SCID6, ALL-SCID3, ALL-SCID7); test: Apoptosis induction in xenograft-derived ALL-cells with high opioid-receptor expression; type: cell-based, human; conditions: 3 μg/mL D,L-methadone (therapeutic plasma concentration); cells expressing high amounts of opioid-receptors; 24 h and 48 h

In the case of C=CCN1CC[C@]23c4c5ccc(O)c4O[C@H]2C(=O)CC[C@@]3(O)[C@H]1C5 [naloxone], the “effect on apoptosis rates of combination treatment with D,L-methadone and doxorubicin” value (BCP-ALL-cell line Tanoue) is reported as “strongly reduced the apoptosis rates”.

For CCC(=O)C(CC(C)N(C)C)(c1ccccc1)c1ccccc1 (racemic) [D,L-methadone, D,L-methadone hydrochloride], the cell death induction [1] was “strong cell death”.
